Test results from patent publication US20220291215A1, “METHODS OF IDENTIFYING T CELL RECEPTORS” (published 2022).
Like-named read-outs stand apart in the source and are kept apart here.

How the values were obtained:
[1] = molecular target: memory CD4+ T cells from DP4+ donors, unstimulated (a small subset; their TCRs); experiment: flow cytometry ex vivo; 68024 evts in the dimer- CD4+ gate
[2] = molecular target: memory CD4+ T cells from DP4+ donors, unstimulated (a small subset; their TCRs); experiment: flow cytometry ex vivo; 53379 evts in the dimer- CD4+ gate
[3] = molecular target: memory CD4+ T cells from DP4+ donors, unstimulated (a small subset; their TCRs); experiment: flow cytometry ex vivo; 119870 evts in the dimer- CD4+ gate
[4] = molecular target: memory CD4+ T cells from DP4+ donors, unstimulated (a small subset; their TCRs); experiment: flow cytometry ex vivo; 156509 evts in the dimer- CD4+ gate
[5] = molecular target: memory CD4+ T cells from DP4+ donors, unstimulated (a small subset; their TCRs); experiment: flow cytometry ex vivo; 64371 evts in the dimer- CD4+ gate
[6] = molecular target: DQ5 (DQA1*01:01-DQB1*05:01)-restricted DDX3Y-specific TCR (E6)
[7] = molecular target: DP4/MAGE-A3243-258 TCR, clone R12C9; experiment: flow cytometry, TCR-transduced primary T cells
[8] = molecular target: endogenous (untransduced) NY-ESO-1157-170 specific CD4+ T cells (their TCRs); experiment: flow cytometry, stimulated donor CD4+ T cells
[9] = molecular target: DP4^L112W/V141M on K562 cells / K562-based aAPCs (human) (UniProt P20036); experiment: flow cytometry, aAPCs
[10] = molecular target: DQ5 (DQA1*01:01-DQB1*05:01)-restricted DDX3Y-specific TCR (E6); remark: listed apart in the source
[11] = molecular target: DQ5 (DQA1*01:01-DQB1*05:01)-restricted DDX3Y-specific TCR (E6); remark: listed apart in the source
[12] = molecular target: DQ5 (DQA1*01:01-DQB1*05:01)-restricted DDX3Y-specific TCR (E6); remark: listed apart in the source
[13] = molecular target: stimulated CD4+ T cells of a DQ5.1+ melanoma patient (their TCRs)
[14] = molecular target: DP4/MAGE-A3243-258 TCR, clone R12C9; experiment: flow cytometry, TCR-transduced CD4+ T cells

“CLIP DP4^L112W/V141M dimer (peptide-MHC)” was tested, and the events in the dimer+ CD4+ gate [1] was 0 evts, the events in the dimer+ CD4+ gate [2] was 1 evts and the events in the dimer+ CD4+ gate [3] was 1 evts. It also gave an events in the dimer+ CD4+ gate [4] of 1 evts and an events in the dimer+ CD4+ gate [5] of 1 evts.

Substance “CLIP dimer, DQ5^L114W/V143M (peptide-MHC)” has a percent multimer-positive CD4+ cells (number at the gate) [6] of 0.1%.

Substance “DP4^L112W/V141M dimer loaded with NY-ESO-1157-170 (peptide-MHC)” has a % dimer+ CD4+ cells [7] of 0.4% and a % dimer+ CD4+ cells [8] of 2.3%.

For “soluble CD4 (sCD4): human CD4 extracellular domain fused with a 6xHis tag via a GS linker, dimerized with a PE-labeled anti-6xHis tag mAb (from UniProt P01730 26-396) (receptor)”, the EC50 (read off the curve) [9] was 100 nM.

In the case of DR1 dextramer (PE), CLIP (peptide-MHC), the percent multimer-positive CD4+ cells (number at the gate) (DR1-restricted TCR HA1.7) is reported as 0.1%.

In the case of “DP4^L112W/V141M dimer loaded with WT1328-348 (peptide-MHC)”, the % dimer+ CD4+ cells [7] is reported as 0.5%.

“wild-type DQ5 dimer loaded with DDX3Y171-190 (peptide-MHC)” was tested, and the percent multimer-positive CD4+ cells (number at the gate) [10] was 0%.

Work on “NY-ESO-1157-170 DP4 dextramer (peptide-MHC)” yielded a % dextramer+ CD4+ cells [8] of 0.4%.

With “DQ5^L114W/V143M dimer loaded with DDX3Y171-190 (peptide-MHC)” the percent multimer-positive CD4+ cells (number at the gate) [11] was 18.4%.

For “DQ5^L114W/V143M+4reps dimer loaded with GPC3138-157 (from UniProt P51654 138-157) (peptide-MHC)”, the percent multimer-positive CD4+ cells (number at the gate) (DQ5-06-GPC3138-157 TCR) was 63.1%, the percent multimer-positive CD4+ cells (number at the gate) [12] was 0.1% and the percent multimer-positive CD4+ cells (number at the gate) [13] was 0.2%.

“DP4^L112W/V141M dimer loaded with MAGE-A3243-258 (peptide-MHC)” was tested, and the % dimer+ CD4+ cells [7] was 25.6% and the % dimer+ Vβ22+ cells [14] was 35%.
